{"source": "patent US20250114396A1", "about": "“CHLORITE USES FOR STEM CELLS” (The Regents of the University of California, priority 2023, published 2025)", "key": {"[1]": {"test_system": "CD 34+ HSCs"}, "[2]": {"details": "in vivo"}, "[3]": {"test_system": "patients with ALS", "details": "patients receiving NP001 who expressed LPS activation pathways", "text": "Non-limiting examples of measures of clinical response include the ALS Functional Rating Scale Revised (ALSFRS-R) and respiratory vital capacity.\nStem cell reprogramming for long term disease regulation is evidenced by finding normalization of biomarkers for at least one month after the last dose in the 6-month administration procedure.\nA major subset of ALS patients show evidence for ongoing inflammation that potentially contributes to disease progression."}}}
{"substance": "sodium chlorite [NP001]", "values": [{"measurement": "side effects in HSC cultures", "setting": "[1]", "result": "no observed side effects"}, {"measurement": "half-life", "setting": "[2]", "result": "minutes"}, {"measurement": "side effects in patients", "setting": "[3]", "result": "no observed side effects"}]}
